Article PMC11817943

Target: full-length human VARP with a C-terminal 10xHis tag (human) (UniProt Q96NW4)
Test: BLI; His-tagged VARP FL (0.05 mg/ml) on a Ni-NTA biosensor; SNX27 FL (0.5-4.0 μM) or Retromer (0.25-2.0 μM) in solution; 10 mM tris pH 8.0, 150 mM NaCl, 0.1% BSA; triplicate

## Retromer heterotrimer (VPS26/VPS35/VPS29) (from UniProt O75436 1-327; Q96QK1 1-796; Q9UBQ0 1-182) (complex; other documents disagree on this pair)
  Kd: 70 nM
  stoichiometry N (Retromer per VARP): 2
